HCMV NEC inh: cytomegalovirus nuclear egress complex inhibition; inhibition, % (no concentration beside the values); HTRF UL50-UL53 interaction, normalized percent inhibition; actives 0.15% (n = 190,000); in the data active = inhibition above about 27%, passing the limit was not always enough
GIV Gai3 FP: inhibitors of GIV peptide binding to Galpha-i3, primary screen, biochemical, fluorescence polarization, FITC-GIV GBA peptide, rat Galphai3. Guanine nucleotide-binding protein G(i) subunit alpha-3 (Rattus norvegicus), P08753. 90 min; stronger effect = lower value; scaled: aluminum fluoride 0%, vehicle 100%. percent of control (FP), % (test concentration not listed). hit rate 0.42% among 210,000. AID 1224905, 2016;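 active = replicate mean at 85% of control or lower, very high polarization wells dropped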;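 note: wells of about 15 µL received 100 nL stock; the first replicate is given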
GIV Gai FP conf: confirmation of inhibitors of GIV binding to rat Galpha-i3 | shares compounds with GIV Gai3 FP | FITC-GIV peptide binding to Galphai3, fluorescence polarization; stronger effect = lower value | fluorescence polarization, mP at 100 µM | actives 38% (n = 580) | AID 1259350;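 active = inhibition score of 15 or more, meaning 100 minus mean polarization as percent of control over three replicates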
GIV Gai AS conf: GIV-Galpha-i3 inhibition, AlphaScreen confirmation; shares compounds with GIV Gai3 FP; AlphaScreen Galphai3-GIV binding, purified proteins, 90 min; stronger effect = lower value; AlphaScreen counts at 100 µM; actives 39% (n = 580);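 active = inhibition score at or above a set limit, where the score is 100 minus the three-replicate mean percent of control signal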
* marks the source's active call; other numbers are inactive results; x = no result given. In the library only some 0.46% were active in any assay of this set; here they are far more common.

Protein sequences, listed by entry. Tags and fused reporters are not part of them.
Guanine nucleotide-binding protein G(i) subunit alpha-3 (Rattus norvegicus), P08753, UniProt P08753, whole entry, looked up: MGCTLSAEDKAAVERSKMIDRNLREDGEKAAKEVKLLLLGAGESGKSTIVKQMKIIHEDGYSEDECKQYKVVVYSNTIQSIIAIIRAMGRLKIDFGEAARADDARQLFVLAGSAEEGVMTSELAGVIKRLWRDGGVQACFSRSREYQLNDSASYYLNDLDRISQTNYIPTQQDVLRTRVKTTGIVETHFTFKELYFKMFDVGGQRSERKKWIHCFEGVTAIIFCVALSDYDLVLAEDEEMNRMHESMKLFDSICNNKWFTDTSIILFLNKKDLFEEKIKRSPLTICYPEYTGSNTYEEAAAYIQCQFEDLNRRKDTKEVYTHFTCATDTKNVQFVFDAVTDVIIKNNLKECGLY

Structure	GIV Gai FP conf	HCMV NEC inh	GIV Gai AS conf	GIV Gai3 FP
COc1ccc(-c2cc(N)n(S(=O)(=O)Cc3ccccc3)n2)cc1	x	x	x	102
O=C1C(=Cc2cccn2-c2ccc(O)cc2)C(=O)c2ccccc21	6.1*	x	19282*	72*
O=C(O)c1cccc(-n2cccc2C=C2C(=O)c3ccccc3C2=O)c1	x	x	x	107
CC(=O)N1CCCSc2ccc(S(=O)(=O)Nc3ccc(S(N)(=O)=O)cc3)cc21	x	-27	x	100
N#Cc1ccc(N2CCOCC2)cc1C#N	x	-32	x	100
CCOC(=O)CSc1n[nH]c(-c2ccco2)n1	x	x	x	104
O=C(O)c1ccc(CSc2n[nH]c(-c3ccco3)n2)cc1	58*	5	2493*	78*
O=C1OC(c2ccc(Cl)c([N+](=O)[O-])c2)=N/C1=C\c1cc(Br)cs1	x	x	x	110
CC(=O)Nc1ccc(C2=N/C(=C/c3cc(Br)cs3)C(=O)O2)cc1	68	-13	42375	93
COc1ccc(/C=c2/sc3nc4ccccc4n3c2=O)cc1	x	9	x	x
O=C(Cn1cc(/C=c2/sc3nc4ccccc4n3c2=O)c2ccccc21)Nc1ccccc1	x	x	x	108
O=C(Cn1cc(/C=c2/sc3nc4ccccc4n3c2=O)c2ccccc21)N1CCCC1	78	-27	43306	80*
COc1ccc(OC)c(/C=c2\sc3nc4ccccc4n3c2=O)c1	52*	-7	38058	89
N#Cc1ccccc1NC(=O)COc1ccc2ccc(=O)oc2c1	x	-20	x	x
Cn1c(SCC(=O)NCCN2C(=O)CSC2=S)nnc1C(F)(F)F	x	-12	x	x
O=C(CCc1nc(CSc2nc(-c3ccccc3)cs2)no1)Nc1ccccc1F	x	x	x	102
Cc1nn(CCCC(=O)NCCC(C)N2CCCC2)c(=O)c2c(-n3cccc3)n(-c3ccccc3)nc12 (stereo not drawn)	x	-8	x	107
CC1CN(Cc2oc(CO)cc(=O)c2O)CC(C)O1 (stereo not drawn)	x	-13	x	x
CC(C)OC(=O)c1cc2c(OCC(O)CNC(C)(C)C)cccc2[nH]1 (stereo not drawn)	x	-14	x	x
CC(C)=NNC(=O)Cc1c[nH]c2cccc(OCC(O)CNC(C)(C)C)c12 (stereo not drawn)	76	-26	32755	90
NC(=O)N/N=C/c1ccc(N2CCOCC2)cc1	x	-72	x	x
CCSc1nnc2c(n1)OC(c1cc(Br)ccc1OC)Nc1ccccc1-2 (stereo not drawn)	x	-4	x	106
CCOC(=O)COc1ccccc1C1Nc2ccccc2-c2nnc(SC)nc2O1 (stereo not drawn)	x	-26	x	105
CCCSc1nnc2c(n1)OC(c1ccccc1)Nc1ccccc1-2 (stereo not drawn)	x	-12	x	109
CCCCSc1nnc2c(n1)OC(/C=C/c1ccccc1[N+](=O)[O-])Nc1ccccc1-2 (stereo not drawn)	60	-31	33401*	80*

In another format: entries from further up
O=C(O)c1ccc(CSc2n[nH]c(-c3ccco3)n2)cc1
  GIV Gai FP conf = 58* | HCMV NEC inh = 5 | GIV Gai AS conf = 2493* | GIV Gai3 FP = 78*
O=C1OC(c2ccc(Cl)c([N+](=O)[O-])c2)=N/C1=C\c1cc(Br)cs1
  GIV Gai FP conf = x | HCMV NEC inh = x | GIV Gai AS conf = x | GIV Gai3 FP = 110
CC(=O)Nc1ccc(C2=N/C(=C/c3cc(Br)cs3)C(=O)O2)cc1
  GIV Gai FP conf = 68 | HCMV NEC inh = -13 | GIV Gai AS conf = 42375 | GIV Gai3 FP = 93

Two entries from above, field by field.
> O=C(O)c1cccc(-n2cccc2C=C2C(=O)c3ccccc3C2=O)c1
  GIV Gai FP conf: x
  HCMV NEC inh: x
  GIV Gai AS conf: x
  GIV Gai3 FP: 107
> CC(=O)N1CCCSc2ccc(S(=O)(=O)Nc3ccc(S(N)(=O)=O)cc3)cc21
  GIV Gai FP conf: x
  HCMV NEC inh: -27
  GIV Gai AS conf: x
  GIV Gai3 FP: 100

More results follow:
Structure	GIV Gai FP conf	HCMV NEC inh	GIV Gai AS conf	GIV Gai3 FP
CCCSc1nnc2c(n1)OC(c1ccccc1OCC(=O)OCC)Nc1ccccc1-2 (stereo not drawn)	59	-16	34096*	21*
CCSc1nnc2c(n1)OC(c1ccc(Br)cc1)Nc1ccccc1-2 (stereo not drawn)	30*	-10	29425	24*
CCCSc1nnc2c(n1)OC(c1ccco1)Nc1ccccc1-2 (stereo not drawn)	60	-36	5688*	78*
CSc1nnc2c(n1)OC(/C=C/c1ccccc1[N+](=O)[O-])Nc1ccccc1-2 (stereo not drawn)	x	3	x	105
O=C(CSc1ccccc1)c1ccccc1Br	x	-4	x	x
COc1cccc(-c2csc(-c3c(N)c(C(=O)c4ccc(Cl)cc4)n4ccccc34)n2)c1	x	35	x	103
COc1cccc2c1Oc1ncccc1NC2	x	-6	x	109
COC(=O)c1ccc(OCC(O)CNCC2CCCO2)c(OC)c1 (stereo not drawn)	x	-22	x	x
O=C1N=c2ccccc2=C1c1s/c(=N/N=C2\C(=O)Nc3ccccc32)n(-c2ccc(O)cc2)c1O	x	-33	x	100
CCN1CCN(C(c2ccccn2)c2c(C)[nH]c3ccccc23)CC1 (stereo not drawn)	x	-3	x	x
COc1cc(NC(=O)CSc2ncnc3nc(N(C)C)sc23)cc(OC)c1	x	-23	x	127
CC(C)(O)C(=O)/C=C/c1ccc2c(c1)OCO2	69	-4	27857*	84*
CCN(CC)C(=O)/C=C/c1ccc2c(c1)OCO2	x	x	x	102
Cc1c(C(=O)N2CCCC2)sc2nc(-c3ccccc3)cn12	x	-10	x	x
O=C(O)c1cccc(Nc2ncnc3scc(-c4ccccc4)c23)c1	82	-11	29755	72*
CC(C)Nc1ncnc2scc(-c3ccccc3)c12	x	-14	x	104
COc1ccc(Nc2cc(C)nc3c(C)c(-c4ccc(OC)c(OC)c4)nn23)cc1	x	-7	x	108
Nc1c(C(=O)Nc2cccc(Cl)c2)sc2nc3c(cc12)CN(Cc1ccccc1)CC3	81	-44	31968	79*
COc1ccc(NC(=O)c2sc3nc4c(cc3c2N)CCCCCC4)cc1OC	81	-47	34749	80*
COc1ccccc1NC(=O)c1sc2nc3c(cc2c1N)CCCCCC3	x	-22	x	104
Cc1cccc(NC(=O)c2sc3nc4c(cc3c2N)CN(Cc2ccccc2)CC4)c1	x	-22	x	100
O=C(/C=C/c1ccc(Br)o1)N(Cc1nc2ccccc2c(=O)[nH]1)CC1CCCO1 (stereo not drawn)	x	-8	x	x
CCCn1cnc2cc(-c3noc(CNC(=O)c4ccccc4)n3)ccc21	x	x	x	100
O=C1CSC(N=Nc2c(O)[nH]c3ccccc23)=N1	x	-84	x	110
O=C1N=c2ccccc2=C1N=Nc1c(O)[nH]c2ccccc12	51*	-42	9884*	57*

(next part)
Structure	GIV Gai FP conf	HCMV NEC inh	GIV Gai AS conf	GIV Gai3 FP
O=C(Nc1ccc(F)c(Cl)c1)N1CCN(Cc2nc3cccnc3n2-c2ccccc2)CC1	x	x	x	104
NC(=O)c1cc2ccccc2oc1=Nc1ccccc1	x	x	x	101
Cn1c(=O)n(CC(=O)O)c(=O)c2c1nc1n2CCN1c1ccc(F)cc1	64	0	39054	85*
Cn1c(=O)n(CC(=O)O)c(=O)c2c1nc1n2CCCN1c1ccc(F)cc1	x	-8	x	93
CCN(CC)C(=O)Cn1cc(/C=C2/C(=O)N(C)c3ccccc32)c2ccccc21	x	x	x	104
CCc1cccc2c(/C=C3/C(=O)N(C)c4ccccc43)cn(CC(=O)NC3CCCC3)c12	34*	x	42825	80*
CCOc1ccc(N/C(SCc2ccc(Cl)cc2)=C(/C#N)C(=O)NCc2ccco2)cc1	x	x	x	97
Cc1nn(-c2cc(N3CCCC3)ncn2)c(C)c1CCC(=O)NC1CCCC1	x	-25	x	99
CC1=NN(c2ccc(N)cc2)C(=O)C1	x	24	x	95
CC1=NN(c2ccc3c(S(=O)(=O)O)cc(S(=O)(=O)O)cc3c2)C(=O)C1	43*	x	4060*	51*
O=C1/C(=C/c2ccncc2)CC/C1=C\c1ccncc1	x	-34	x	x
CC1C/C(=C/c2ccncc2)C(=O)/C(=C/c2ccncc2)C1 (stereo not drawn)	44*	x	8734*	68*
CCc1nc(-c2cc(S(=O)(=O)N3CCN(c4ccc(F)cc4)CC3)c(C)s2)cs1	x	x	x	99
COc1cc(NC(=O)C2CCN(C(=O)c3cccn3-c3cccnc3)CC2)cc(OC)c1	x	-19	x	107

Assay outcomes (PubChem BioAssay)
